## Binding of CDR-mutated scFvs to a peptide of the spike HR2 region

Reference: Li et al. 2023, doi:10.1038/s41467-023-39022-2. File: FLAb, binding data.

Target: peptide PDVDLGDISGINAS, taken from heptad repeat 2 (HR2) of SARS-CoV-2 spike.

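The starting antibody came from a phage panning campaign against this peptide. This is the validation round: designs drawn from the data on random variants, tested in the same kind of assay. Several design methods are mixed in this list. Affinity was read by AlphaSeq, a pooled yeast mating assay with surface-displayed partners. After mating in shaken culture at 30 °C for 16 h, diploids were selected and their barcode pairs sequenced. Each replicate has its own calibration line, from reference interactions of the BCL2 family. The assay was run in six technical replicates.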

Ab-14 is the parent antibody, in scFv form: VH, then three GGGGS repeats, then VL. The light chain is unchanged in all variants.
VH: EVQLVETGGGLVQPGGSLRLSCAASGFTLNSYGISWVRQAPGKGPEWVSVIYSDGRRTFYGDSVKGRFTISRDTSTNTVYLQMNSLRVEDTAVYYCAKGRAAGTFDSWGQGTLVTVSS
VL: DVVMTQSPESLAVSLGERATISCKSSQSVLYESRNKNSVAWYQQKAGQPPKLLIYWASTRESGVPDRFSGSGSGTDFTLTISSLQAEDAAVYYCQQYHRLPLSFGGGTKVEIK

The parent's heavy chain CDRs are GFTLNSYGIS, VIYSDGRRTFYGDSVK, GRAAGTFDS; each variant's own CDRs replace them letter for letter.
This list holds designs with at most six substitutions.
Kd is apparent (estimated from mating counts) and averaged on the log scale over replicates with a signal. Smaller is tighter.
"no signal" marks a missing value. The strain was present, yet no cells mated with the target were sequenced in any replicate, which points to weak or no binding.

Variant GFSLNDYGIS | VIYSDGRRTFYGDMVK | GRTAGTFDS showed 770 pM (6 of 6 replicates).
Variant GFTLNSYGIS | VIYSDGRRTFYGDSVE | GRAAGTFDS showed 53 nM (2 of 6 replicates).
Variant GFNLNSYGIS | VIYSDGRRTFYGDSVK | GQLAGTFDS showed 6.6 nM (6 of 6 replicates).
Variant GFTLNDYGIS | VIYSDGRRTFYGDSVK | GRAIVTFDS showed no signal (0 of 6 replicates).
Variant GFGLNSYGIS | VIYSDGRRTFYGDSVK | GSEAGTFDT showed 1.0 nM (6 of 6 replicates).
Variant GFTLDSYGIS | VIYADGRRTFYGDSVK | GRVAGTFDS showed 540 pM (6 of 6 replicates).
Variant GFTLNSYGIS | VIYSDGRRTFYGDDVK | GEAAGTFDK showed 6.1 nM (5 of 6 replicates).
Variant GFTLNDYGIS | VIYADGRRTFYGDSVK | GRAAGTFMS showed 730 nM (1 of 6 replicates).
Variant GFSLNEYGIS | VIYSDGRRTFYADSVK | GRAAGKFDS showed no signal (0 of 6 replicates).
Variant GFTLNSPGIS | VIYSDGRRTFYSDDVK | GRAGGTFDS showed no signal (0 of 6 replicates).
Variant GFQLNSYGIS | VIYSDGRRTFYHDSVK | GRTAGTFDT showed 60 nM (3 of 6 replicates).
Variant GFDLNTYGIS | VIYSDGRRTFYDDSVK | GKAAGTFDS showed 2.2 nM (6 of 6 replicates).
Variant GATLDSYGIS | VGYSDGRRTFYGGSVK | GSAALTFDS showed no signal (0 of 6 replicates).
Variant GFELNSYGIS | VIYSDGRRTFYGDSVK | GRTAGTFDC showed no signal (0 of 6 replicates).
Variant GFTLNSYGIS | VIYSDGRRTFYGDSVK | GRTAATFDS showed no signal (0 of 6 replicates).
Variant GFTLNDYGIS | VIYSDGRRTFYGDSVA | GTAAGTFDS showed 5.7 nM (6 of 6 replicates).
Variant GFELNSYGIS | VIYSDGRRTFYADDVK | GREAGTFDS showed 1.4 nM (6 of 6 replicates).
Variant GFDLNEYGIS | VIYADGRRTFYADNVK | GEAAGTFDS showed 550 pM (6 of 6 replicates).
Variant GFTLNSYGIS | VIYADGRRTKYGSSVK | GRAAGTNKS showed no signal (0 of 6 replicates).
Variant YFDLNSYGIS | VIYSDGRRTFYADSVK | GRTAGTFDS showed 1.7 nM (6 of 6 replicates).
Variant GFDLDSYGIS | VIYADGRRTFYGDSVK | GRAAGTFES showed 890 pM (6 of 6 replicates).
Variant GFTLNSYGIS | VIYSDGYRTFYGDSVK | GRAAGTFDA showed no signal (0 of 6 replicates).
Variant GFSLNEYGIS | VIYSDGRRTFYGDSVK | GRTAGTFDK showed 2.8 nM (5 of 6 replicates).
Variant GFTLEQYGIS | VIYADGRRTFYGDSVK | GRAAGTFDS showed 430 pM (6 of 6 replicates).
Variant GFDLNSYGIS | VIYSDGRRTFYGDSVK | GRLAWTFDS showed no signal (0 of 6 replicates).
Variant GQTLNSYGIS | VIYSDGRRTFYGDSVK | GRAAGTFDS showed 27 nM (1 of 6 replicates).
Variant GLTLNSYGIS | VIYADGRRTFYGDSVK | GRAAGTFDS showed 840 pM (6 of 6 replicates).
Variant GFTLNSYGIS | VIYSDGRRTFYGGSVK | GRVAGEFDM showed no signal (0 of 6 replicates).
Variant GFNLNSYGIS | VIYSDGRRTAYGDSVK | WRAAGTFDS showed no signal (0 of 6 replicates).
Variant GFTLNSYGIS | VIYSDGRRTFYGDSVR | GRAAVTFDS showed 170 nM (5 of 6 replicates).
Variant GFTLMSYGIS | VIYSDGKRTFYGDSVK | GRAAGTFDS showed 240 nM (2 of 6 replicates).
Variant GFELNSYGIS | VIYSDGRRTFYSDSVK | GRTAGTFDT showed 700 pM (6 of 6 replicates).
Variant GFDLNEYGIS | VIYADGRRTFYVDSVK | GSNAGTFDS showed 570 pM (6 of 6 replicates).
Variant GFTLNSYGIS | VIYSDGRRTAYGDSVK | GKAAGTFDD showed 41 nM (6 of 6 replicates).
Variant GFTLNEYGIS | VIYSDGRRTFYKDSVK | GRAAGTFDK showed 14 nM (1 of 6 replicates).
Variant GFDLNSYGIS | VIYSDGRRTFYIDSVK | GRLAGTFDS showed 35 nM (5 of 6 replicates).
Variant SFSLNSYGIS | VIYSDGRRTFYADSVK | GSEAGTFDS showed 20 nM (2 of 6 replicates).
Variant GFTLNEYGIS | VIYSDGRRTFYGDSMK | GRAAVTFDQ showed no signal (0 of 6 replicates).
Variant GFTLNDYGIS | VIYSDGLRTFYGDSVK | GRQAGTFDS showed no signal (0 of 6 replicates).
Variant GFTLNQYGIS | VIYSDGQRTFYSDSVK | GRAAVTFDS showed no signal (0 of 6 replicates).
Variant GFTLNEYGIS | VIYSDGRRTFYTDSVK | GRIAGTFDS showed 280 pM (5 of 6 replicates).
Variant GFVLNSYGIS | VIYSDGRRTFYVDSVK | GKTAGTFDT showed 13 nM (1 of 6 replicates).
Variant GFTLNEYGIS | VIYSDGRRTMYTDSVK | GRLAGTFDS showed 1.6 nM (6 of 6 replicates).
Variant GFGLNDYGIS | VIYSDGRRTQYIDSVK | GRAAGTFDS showed 12 nM (6 of 6 replicates).
Variant GFDLNSYGIS | VIYSDGRRTFYADMVK | GREAGTFDS showed 900 pM (6 of 6 replicates).
Variant GFSLNSHGIS | VIYSDGRRTFYSDRVK | GKATGTFDS showed no signal (0 of 6 replicates).
Variant MFSLNSYGIS | VIYSDGRRTFYIDSVK | GNAAGTFDS showed no signal (0 of 6 replicates).
Variant GFTLNEYGIS | VIYSDGRRTFYGDSVK | GRASVTFDM showed no signal (0 of 6 replicates).
Variant GFTLNSYGIS | VIYSDGRRTFYSDSVK | GKHAGTFDT showed 5.0 nM (6 of 6 replicates).
Variant GKTLNQYGIS | VIYSDGRRTFYSDSVK | GRAAGFFDS showed no signal (0 of 6 replicates).
Variant GFTLNSYGIS | VIYSDGRRTFYGDSVK | GMAAGTFKS showed no signal (0 of 6 replicates).
Variant LFTLNQYGIS | VIYSDGRRTFYSDSVK | GRAAGFFDS showed no signal (0 of 6 replicates).

Of ten entries with the parent sequence, four were seen in most replicates (averages 2.2 nM to 240 nM), three in one and three in none, so single entries are noisy.
The authors' rule: three or more of the six replicates give a measured affinity, fewer mean a poor binder.
A sequence measured in both rounds can read differently, since the two assays cover different ranges.
Empty control strains, which show no peptide, gave a signal in 1% of pairings with all heavy chain designs; the median was 120 nM and 95% of these signals were weaker than 7.0 nM. No background was subtracted.